How the values were obtained:
[1] = Selectivity ratio of IC50 for DNA-PK (unknown origin) to IC50 for ATK (unknown origin)
[2] = Selectivity ratio of IC50 for mTOR (unknown origin) to IC50 for ATK (unknown origin)

SMILES: CNc1nc2ccccc2n1-c1nc(N2CCOC[C@H]2C)c2scc(S(C)(=O)=O)c2n1
- Selectivity ratio [1]: 16.9
- Selectivity ratio [2]: 39.2
